Experimental findings from patent US8362216B2, “Method of detection using antibodies that specifically bind hedgehog-derived polypeptides” (The Johns Hopkins University School of Medicine, priority 1994, dated 2013) are described below.

Chains of the proteins cited; added tags and fusions are not shown. A line that says so, or that is headed by a name, gives the form on record, which may keep a tag or linker.
UniProt Q02936, other isoform, or with tags, fused parts or gaps DEL89-254: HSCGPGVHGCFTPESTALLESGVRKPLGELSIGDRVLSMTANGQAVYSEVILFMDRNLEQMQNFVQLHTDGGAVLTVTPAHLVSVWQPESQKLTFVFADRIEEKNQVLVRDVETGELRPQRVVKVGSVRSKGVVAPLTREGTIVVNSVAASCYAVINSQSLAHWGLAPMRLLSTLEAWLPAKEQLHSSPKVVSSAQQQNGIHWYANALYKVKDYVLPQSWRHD

This experiment concerns the target His6Hh-C protein (Drosophila melanogaster, UniProt Q02936, DEL89-254). In words: In vitro autocleavage reaction of bacterially expressed His6Hh-C protein (DTT / lipid stimulation).

Regarding `O[C@H](CS)[C@H](O)CS` (racemic) [dithiothreitol], for the setting “1 mM dithiothreitol alone”, the “In vitro cleavage of His6Hh-C” value was “no visible cleavage product”. The “In vitro cleavage of His6Hh-C, completion” value (50 mM DTT, three hours at 30° C.) is recorded as “greater than 50%”.
